These are literature values, as cited in patent US11771709B2 (dated 2023).

The test system of the data set is ALK positive non-small cell lung cancer. As to conditions: cited from earlier work.

SMILES strings stand for the structures. Read-outs that look alike come from different tables or passages of the source.

Take `C[C@@H](Oc1cc(-c2cnn(C3CCNCC3)c2)cnc1N)c1c(Cl)ccc(F)c1Cl` [Crizotinib]: the progression free survival entry (ALK positive non-small cell lung cancer patients (Nishio et al, 2017)) was “about 10 months”. In addition, the “median progression free survival” value by setting is: (Asian patients) 13.6 months; (patients, 7.2 months with chemotherapy) 9.6 months. Besides, the objective response rate (patients, 20% with chemotherapy) is listed as 65%.
Regarding `CCc1cc2c(cc1N1CCC(N3CCOCC3)CC1)C(C)(C)c1[nH]c3cc(C#N)ccc3c1C2=O` [Alectinib], the progression free survival entry (second line after Crizotinib resistance (Asao et al., 2017)) was “up to 35 months”.
